# Measurements reported in ChEMBL document CHEMBL1833971, “Towards rational design of cannabinoid receptor 1 (CB1) antagonists for peripheral selectivity” (Bioorg Med Chem Lett, 2011).
# Amino acid sequences for entries named in this document (tags omitted).
# UniProt P21554, whole entry: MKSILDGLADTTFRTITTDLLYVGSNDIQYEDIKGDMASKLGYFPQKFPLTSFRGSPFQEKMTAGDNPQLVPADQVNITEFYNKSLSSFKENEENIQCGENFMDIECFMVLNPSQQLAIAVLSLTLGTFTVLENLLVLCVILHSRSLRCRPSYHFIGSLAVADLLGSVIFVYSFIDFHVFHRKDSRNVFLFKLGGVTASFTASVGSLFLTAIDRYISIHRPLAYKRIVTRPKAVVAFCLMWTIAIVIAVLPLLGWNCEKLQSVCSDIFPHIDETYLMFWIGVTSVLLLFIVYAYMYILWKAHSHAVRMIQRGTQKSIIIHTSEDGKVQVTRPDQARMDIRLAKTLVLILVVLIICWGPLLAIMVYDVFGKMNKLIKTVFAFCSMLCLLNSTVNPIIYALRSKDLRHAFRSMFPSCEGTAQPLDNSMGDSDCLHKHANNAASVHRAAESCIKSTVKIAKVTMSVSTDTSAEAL
# Key:
# Cannabinoid receptor 1 [1] = biological target: T1, Cannabinoid receptor 1 (Homo sapiens, UniProt P21554); assay: Displacement of [3H]-SR141716A from human CB1 receptor expressed in CHO-K1 cells after 1 hr by liquid scintillation counting; type: cell-based
# How it was run: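 Radioligand displacement with [3H]SR141716 used to determine equilibrium dissociation constant Ki.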
# Cannabinoid receptor 1 [2] = biological target: T1, Cannabinoid receptor 1; assay: Displacement of [3H]-CP55940 from human CB1 receptor expressed in CHO-K1 cells after 1 hr by liquid scintillation spectrometry; type: cell-based
# How it was run: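 Membranes from CHO-K1 cells over-expressing CB1 or CB2 used for [3H]CP55940 displacement, giving Ki at each receptor. Selectivity taken as the comparison of the CB2 and CB1 Ki values.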
# Cannabinoid receptor 1 [3] = biological target: T1, Cannabinoid receptor 1; assay: Antagonist activity at human CB1 receptor transfected in CHO-K1 cells co-expressing G-alpha-q16 protein assessed as inhibition of G-alpha-q16 protein-mediated intracellular calcium mobilization; type: functional, cell-based
# How it was run: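 Fluorescent intracellular calcium read-out in CHO-K1 cells expressing CB1 coupled via Gαq16. Cells pre-incubated with test agent, then a CP55940 concentration-response was run. Antagonism seen as a rightward shift of the agonist curve. Apparent dissociation constant Ke was derived from agonist EC50 with versus without antagonist.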
SMILES,Ki (Cannabinoid receptor 1 [1]),Ki (Cannabinoid receptor 1 [2]),Ke (Cannabinoid receptor 1 [3])
Cc1c(C(=O)NC[C@H]2CC[C@@H](CNS(N)(=O)=O)CC2)nn(-c2ccc(Cl)cc2Cl)c1-c1ccc(Cl)cc1,15 nM,107 nM,
Cc1c(C(=O)NCCCCCCCNS(C)(=O)=O)nn(-c2ccc(Cl)cc2Cl)c1-c1ccc(Cl)cc1,60 nM,158 nM,0.207 µM
Cc1c(C(=O)NCC2CCC(CNS(N)(=O)=O)CC2)nn(-c2ccc(Cl)cc2Cl)c1-c1ccc(Cl)cc1 (mixture of isomers),21 nM,135 nM,
